Laboratory results from PMC5150216.

Target: ExoY with a C-terminal Flag-His tag (ExoY-FH) (P. aeruginosa PAO1) (UniProt Q9I1S4)
Experiment: pull-down; ExoY-FH held on Ni-NTA agarose; actin (MA-L) polymerized to steady state (F-actin, Mg-ATP), equimolar amounts (12 μg); 50 mM Na-phosphate pH 8.0, 300 mM NaCl, imidazole, 5 mM ATP, 20 mM MgCl2; 1 h at 4 °C; Coomassie, densitometry

α-actin from rabbit skeletal muscle (from UniProt P68135 1-377) (natural protein)
percent of F-actin recovered by elution with ExoY-FH: 92%
